The values that follow come from patent US8853193B2, “Thienopyrimidines containing a substituted alkyl group for pharmaceutical compositions” (Boehringer Ingelheim International GmbH, priority 2010, dated 2014).

Protein sequences, listed by entry. Tags and fused reporters are not part of them.
UniProt Q9HBH9, whole entry: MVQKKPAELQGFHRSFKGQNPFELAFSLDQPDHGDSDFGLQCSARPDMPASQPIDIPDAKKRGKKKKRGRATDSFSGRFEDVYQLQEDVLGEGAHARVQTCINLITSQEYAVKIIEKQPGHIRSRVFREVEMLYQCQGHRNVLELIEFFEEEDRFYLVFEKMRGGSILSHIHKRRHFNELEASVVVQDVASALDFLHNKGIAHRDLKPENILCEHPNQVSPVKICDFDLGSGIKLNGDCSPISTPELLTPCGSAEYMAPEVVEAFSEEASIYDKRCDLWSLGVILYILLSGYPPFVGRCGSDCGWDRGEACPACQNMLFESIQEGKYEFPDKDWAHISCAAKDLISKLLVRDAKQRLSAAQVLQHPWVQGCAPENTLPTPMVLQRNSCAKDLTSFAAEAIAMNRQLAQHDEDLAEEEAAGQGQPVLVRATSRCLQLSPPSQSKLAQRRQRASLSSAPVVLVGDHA

SMILES strings stand for the structures.

The assay deals with human Mnk2a (Homo sapiens (Human), UniProt Q9HBH9). The assay can be described thus: Mnk2a in vitro kinase assay (indirect competitive fluorescence polarization). It is filed as biochemical. The conditions noted are these: read-out: MNK2 IC50; pre-activated GST-Mnk2a 2.5 nM, 20 μM ATP, 30 μM substrate peptide.

With `Cc1c(C(=O)NCCCN(C)C)sc2ncnc(Nc3ccc(F)cc3OC(C)CC(F)(F)F)c12` (stereo not shown), the IC50 was 13 nM.
